# This is a sample that favours compounds with a hit; in the whole collection about 2.1% have one here.
# MITF TRPM1 HTS – increases MITF-driven TRPM1 promoter luciferase signal. SK-MEL-5 TRPM1-promoter luciferase, 24 h; % of positive control, neutral wells = 0. activation, % at 12.5 µM. 0.75% of 300,000 active;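 active = mean activation of at least 80% with every replicate also reaching 80%; inconclusive = mean reaches 80% but some replicate falls short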;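 note: 0% = neutral control wells and 100% = parthenolide positive control wells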
# PGC1a acetyl inh – modulators of PGC1a acetylation; U2OS PGC1a acetylation, AlphaScreen anti-acetyl-lysine; with virally co-expressed GCN5 acetyltransferase; inhibition, % at 15.6 µM; 0.17% of 350,000 active;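 active = every replicate shows inhibition of at least 40%; inconclusive = mean inhibition at least 40% but some replicate below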;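 note: 0% = neutral control wells and 100% = positive control wells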
# MITF TRPM1 inh – inhibitors of MITF-driven TRPM1 promoter in melanoma cells; SK-MEL-5 TRPM1 promoter luciferase, 24 h; inhibition, % at 12.5 µM; 0.83% of 330,000 active; AID 488899;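 active = mean inhibition across replicates of 60% or more, whatever share of single replicates reaches that level; inconclusive = some that reach 60%, reason not given; inactive = mean inhibition across replicates below 60%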
# Yeast UUG start – modulators of start codon recognition fidelity in yeast; AID 602363; activity score, % at 18.7 µM; S. cerevisiae UUG-firefly luciferase reporter, luminescence/redox ratio; actives 0.13% (n = 350,000);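 active = replicate mean at a twofold rise or more, about +100% in these data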;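 note: firefly luciferase made from a UUG start codon reports start codon fidelity; reporter light over untreated wells divided by growth signal over untreated wells; some hits fall short of that in this replicate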
# miR-122 sensor – blocks miR-122 activity in Huh7 sensor cells; AID 602342; 0.3% of 340,000 active; Huh7 miR-122 Renilla luciferase sensor, 48 h; neutral wells = 0, positive control = 100; activation (reporter increase), % at 12.5 µM;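 active = mean replicate activation score at least 90 and every replicate individually at or above 90; inconclusive = only one of the two criteria met; inactive = neither criterion met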;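 note: higher luciferase means less miR-122 activity so hits act as miR-122 inhibitors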
# Wnt bcat act – Wnt/beta-catenin pathway activation. Wnt/beta-catenin reporter cell assay, activator, plate reader. activation, % at 9.35 µM. AID 743398. 1.2% of 300,000 active; in the data active = activation above about 30%, passing the limit was not always enough; inconclusive = no clear call, values can overlap the other calls;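 note: 0% = neutral control wells and 100% = positive control wells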
# Starred values were filed as active, the others as inactive; ? = inconclusive; / = no result; [ ] = dose if it differs, or a comment.
SMILES,MITF TRPM1 HTS,PGC1a acetyl inh,MITF TRPM1 inh,Yeast UUG start,miR-122 sensor,Wnt bcat act
C=C(C=O)CC1CC(O)[C@]2(C)OC3CC4OC5C[C@]6(C)O[C@]7(C)CCC8OC9C[C@]%10(C)OC%11C(C)=CC(=O)OC%11CC%10OC9C[C@@H](C)C8OC7CC6O[C@]5(C)CC5OC5C4OC3CC2O1 (some centres not stated),-95,-3,96*,7,38,/
C=C(CO)CC1CC(O)[C@]2(C)OC3CC4OC5C[C@]6(C)O[C@]7(C)CCC8OC9C[C@]%10(C)OC%11C(C)=CC(=O)OC%11CC%10OC9C[C@@H](C)C8OC7CC6O[C@]5(C)C/C=C\C4OC3CC2O1 (some centres not stated),3,8,-2,27,-5,2
COc1ccc(-[n+]2c(-c3ccccc3)cc(-c3ccccc3)cc2-c2ccccc2)cc1,/,/,/,/,/,-20
Oc1ccc(-[n+]2c(-c3ccccc3)cc(-c3ccccc3)cc2-c2ccccc2)cc1,?,/,84*,9,/,-22
C=CCn1c(O)c(C(C)=NCc2ccco2)c(=O)[nH]c1=O,4,11,0,-15,-16,-1
CCCCn1c(O)c(C(C)=NCc2ccco2)c(=O)[nH]c1=O,/,-3,-5,-2,-10,45*
Cc1ccc(OC(=O)N(C)C[C@@H]2OCc3ccccc3-c3c(n(C)c4ccccc34)C(=O)N([C@@H](C)CO)C[C@@H]2C)cc1,/,2,/,/,/,/
COc1cc(/C=C(/C)[N+](=O)[O-])ccc1OCc1ccccc1Cl,-90,59,91*,-6,-29,-11
COc1cc(C=C2C(=O)NC(=O)NC2=O)ccc1OCc1ccc([N+](=O)[O-])cc1,66,/,-67,-9,0,15
N#Cc1ccc(-c2ccc([C@H]3[C@H](CO)N4CCCCN(C(=O)Cc5ccccc5)C[C@@H]34)cc2)cc1,/,0,/,-15,14[16.7 µM],/
CC(=O)OC1(C)CC(C)C(=O)C(C(O)CC2CC(=O)NC(=O)C2)C1 (configuration not stated),-84,93*,84*,95,-12,-1
C[C@@H]1C[C@@H]([C@H](O)CC2CC(=O)NC(=O)C2)C(=O)[C@@H](C)C1,-77,73*,79*,17,-26,-25
CC(C)COC(=O)c1ccccc1C(=O)OCC(C)C,3,-9,3,-9,0,-2
C[CH2][Hg][S]c1ccccc1C(=O)O,-94,6,95*,-70,-24,-30
Nc1ncnc2c1ccn2[C@@H]1O[C@H](CO)[C@@H](O)[C@H]1O,/,-110,/,-16,-25,-2
NC(=S)c1cn(C2OC(CO)C(O)C2O)c2ncnc(N)c12 (configuration not stated),-81,/,82*,-27,/,-12
CCN1[C@@H]2c3ccc(-c4cccc(OC)c4)c(=O)n3C[C@H]1[C@H](CO)[C@H]2C(=O)OC,/,/,/,/,3[16.7 µM],/
CCOc1cccc(CNCCc2c(C)[nH]c3ccc(OC(F)(F)F)cc23)c1O,-96,/,98*,-7,3,-12
Cc1[nH]c2ccc(OC(F)(F)F)cc2c1CCNCc1cccc([N+](=O)[O-])c1,12,/,-13,-12,13,-4
CC(=O)OC1CC(OC2C(O)CC(OC3C(O)CC(OC4CCC5(C)C(CCC6C5CCC5(C)C(C7=CC(=O)OC7)CCC65O)C4)OC3C)OC2C)OC(C)C1OC1OC(CO)C(O)C(O)C1O (configuration not stated),-78,?,80*,/,2,-26
COc1cc(C(=O)N/N=C/C23CC[C@@H](O)CC2(O)CC[C@@H]2[C@@H]3CCC3(C)C(C4=CC(=O)OC4)CCC23O)ccc1O (some centres not stated),10,-4,-16,/,0,-2
COC1=C(C)C(=O)C2=C(C1=O)C(CO)N1C(C#N)C3CC4C(C1C2N1CCOC41)N3C (configuration not stated),/,-3,76*,/,-3,-24
CC1=CC2OC3CC4OC(=O)C=CC=CC(=O)OCCC(C)C(O)C(=O)OCC2(CC1O)C4(C)C31CO1 (configuration not stated),-86,/,86*,/,/,/
